In PMC5411959, “Potential Antiosteoporotic Natural Product Lead Compounds That Inhibit 17β-Hydroxysteroid Dehydrogenase Type 2” (Journal of Natural Products, 2017):

Experiments:
[1] = target: T1, human 17β-HSD1 (Homo sapiens, UniProt P14061); test: 17β-HSD1 activity assay using lysates of HEK-293 cells expressing the recombinant human enzyme; format: biochemical; details: 17β-HSD1 versus 17β-HSD2
T1 construct: expressed in transfected cells; host or cells: HEK-293 (ATCC), used as cell lysate
T1 sequence (P14061 1-328): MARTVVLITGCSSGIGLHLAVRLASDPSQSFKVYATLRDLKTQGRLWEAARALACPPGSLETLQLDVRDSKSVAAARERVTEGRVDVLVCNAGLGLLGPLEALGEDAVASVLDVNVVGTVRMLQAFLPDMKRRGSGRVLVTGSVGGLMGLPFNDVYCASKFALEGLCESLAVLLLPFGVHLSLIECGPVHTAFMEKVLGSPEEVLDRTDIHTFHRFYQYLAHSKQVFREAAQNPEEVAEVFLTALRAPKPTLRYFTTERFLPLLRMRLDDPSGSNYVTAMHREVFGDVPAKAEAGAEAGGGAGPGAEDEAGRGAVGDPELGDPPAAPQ

[2] = system: 17β-HSD2; set-up: method as in PMID 18533708; details: read-out: inhibition of 17β-HSD2: IC50 (μM); mean ± SD; cited from earlier work

SMILES	selectivity factor [1]	IC50 [2] [µM]
O=C(/C=C/c1ccc(O)c(O)c1)O[C@H](Cc1ccc(O)c(O)c1)C(=O)O [compound 11, rosmarinic acid]	>5	
O=c1c(-c2ccc(O)cc2)coc2cc(O)cc(O)c12 [compound 32, genistein]		16.5 ± 2.7
